Results: IntAct's records for PubMed 25517094

B1: Programmed cell death 6-interacting protein (Homo sapiens), Q8WUM4 (parent)
chain: MATFISVQLKKTSEVDLAKPLVKFIQQTYPSGGEEQAQYCRAAEELSKLRRAAVGRPLDKHEGALETLLRYYDQICSIEPKFPFSENQICLTFTWKDAFDKGSLFGGSVKLALASLGYEKSCVLFNCAALASQIAAEQNLDNDEGLKIAAKHYQFASGAFLHIKETVLSALSREPTVDISPDTVGTLSLIMLAQAQEVFFLKATRDKMKDAIIAKLANQAADYFGDAFKQCQYKDTLPKEVFPVLAAKHCIMQANAEYHQSILAKQQKKFGEEIARLQHAAELIKTVASRYDEYVNVKDFSDKINRALAAAKKDNDFIYHDRVPDLKDLDPIGKATLVKSTPVNVPISQKFTDLFEKMVPVSVQQSLAAYNQRKADLVNRSIAQMREATTLANGVLASLNLPAAIEDVSGDTVPQSILTKSRSVIEQGGIQTVDQLIKELPELLQRNREILDESLRLLDEEEATDNDLRAKFKERWQRTPSNELYKPLRAEGTNFRTVLDKAVQADGQVKECYQSHRDTIVLLCKPEPELNAAIPSANPAKTMQGSEVVNVLKSLLSNLDEVKKEREGLENDLKSVNFDMTSKFLTALAQDGVINEEALSVTELDRVYGGLTTKVQESLKKQEGLLKNIQVSHQEFSKMKQSNNEANLREEVLKNLATAYDNFVELVANLKEGTKFYNELTEILVRFQNKCSDIVFARKTERDELLKDLQQSIAREPSAPSIPTPAYQSSPAGGHAPTPPTPAPRTMPPTKPQPPARPPPPVLPANRAPSATAPSPVGAGTAAPAPSQTPGSAPPPQAQGPPYPTYPGYPGYCQMPMPMGYNPYAYGQYNMPYPPVYHQSPGQAPYPGPQQPSYPFPQPPQQSYYPQQ

Variants of: B1
Settings: with SH3GL1, Q99961-1

| Variant | effect of a mutation on the interaction |
| --- | --- |
| R757E | decreasing interaction strength |
